ChEMBL document CHEMBL4819001, “Discovery of tetrahydroquinolines and benzomorpholines as novel potent RORγt agonists” (Eur J Med Chem, 2021)

Key:
[1] = target: T1, Nuclear receptor ROR-beta (Homo sapiens) (UniProt Q92753); test: Binding affinity to RORbeta (unknown origin)
T1 sequence (whole entry): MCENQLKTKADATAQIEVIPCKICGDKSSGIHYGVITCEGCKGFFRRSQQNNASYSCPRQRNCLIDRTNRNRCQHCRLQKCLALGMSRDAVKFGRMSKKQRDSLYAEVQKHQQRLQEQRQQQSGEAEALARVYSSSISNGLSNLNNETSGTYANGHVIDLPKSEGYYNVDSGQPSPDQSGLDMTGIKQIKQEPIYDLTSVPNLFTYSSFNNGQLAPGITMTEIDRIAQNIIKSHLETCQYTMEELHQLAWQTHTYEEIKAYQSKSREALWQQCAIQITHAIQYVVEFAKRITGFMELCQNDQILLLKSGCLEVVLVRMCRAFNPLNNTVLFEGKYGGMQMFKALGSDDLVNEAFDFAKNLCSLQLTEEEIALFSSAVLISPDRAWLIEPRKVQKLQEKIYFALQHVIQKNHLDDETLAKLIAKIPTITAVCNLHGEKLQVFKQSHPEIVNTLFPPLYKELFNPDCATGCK

[2] = target: T2, Nuclear receptor ROR-alpha (Homo sapiens) (UniProt P35398); test: Binding affinity to RORalpha (unknown origin)
T2 sequence (whole entry): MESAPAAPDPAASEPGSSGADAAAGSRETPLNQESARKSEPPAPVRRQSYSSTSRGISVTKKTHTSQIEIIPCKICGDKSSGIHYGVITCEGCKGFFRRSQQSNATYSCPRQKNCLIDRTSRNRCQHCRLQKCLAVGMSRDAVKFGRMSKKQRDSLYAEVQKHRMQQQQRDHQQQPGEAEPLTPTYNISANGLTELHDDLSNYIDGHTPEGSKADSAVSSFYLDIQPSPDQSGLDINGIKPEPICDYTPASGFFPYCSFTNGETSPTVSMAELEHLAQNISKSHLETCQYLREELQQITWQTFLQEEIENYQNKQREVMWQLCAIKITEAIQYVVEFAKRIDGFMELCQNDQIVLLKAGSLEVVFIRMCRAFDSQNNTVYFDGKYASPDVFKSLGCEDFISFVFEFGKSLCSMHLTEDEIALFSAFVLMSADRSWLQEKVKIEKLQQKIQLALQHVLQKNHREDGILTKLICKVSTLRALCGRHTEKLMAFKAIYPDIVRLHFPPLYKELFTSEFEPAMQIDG

Q: Which Activity [1] does the source give for `CCS(=O)(=O)c1ccc(CC(=O)Nc2ccc(CCN3CCCc4ccc(CC(C)C)cc43)cc2)cc1` here?
A: Its Activity is “inactive”.

Q: What about the Activity [2] of the same compound?
A: The Activity was “inactive”.

Active and inactive are the calls of the source. The calls are words filed in the database; no cut-off is given here.
